pIC50: −log10 of the molar value. Only a part of the results on these compounds is given; other tests are left out.
Key:
[1] = target: glycine transporter-2 (GlyT-2) (Homo sapiens, UniProt Q9Y345); assay: [14C]glycine uptake assay in HEK-GlyT-2 transfected cells; format: cell-based; settings: read-out: GlyT-2 IC50, HEK-GlyT-2 cells
[2] = target: glycine transporter-1 (GlyT-1) (Homo sapiens, UniProt P48067); assay: [14C]glycine uptake assay in JAR cells endogenously expressing GlyT-1 (scintillation proximity); settings: read-out: GlyT-1 IC50, [14C]glycine 5 μM, 3 hour incubation

Sequences of proteins named here, by UniProt entry; tags and fusion partners are left off.
UniProt Q9Y345, whole entry: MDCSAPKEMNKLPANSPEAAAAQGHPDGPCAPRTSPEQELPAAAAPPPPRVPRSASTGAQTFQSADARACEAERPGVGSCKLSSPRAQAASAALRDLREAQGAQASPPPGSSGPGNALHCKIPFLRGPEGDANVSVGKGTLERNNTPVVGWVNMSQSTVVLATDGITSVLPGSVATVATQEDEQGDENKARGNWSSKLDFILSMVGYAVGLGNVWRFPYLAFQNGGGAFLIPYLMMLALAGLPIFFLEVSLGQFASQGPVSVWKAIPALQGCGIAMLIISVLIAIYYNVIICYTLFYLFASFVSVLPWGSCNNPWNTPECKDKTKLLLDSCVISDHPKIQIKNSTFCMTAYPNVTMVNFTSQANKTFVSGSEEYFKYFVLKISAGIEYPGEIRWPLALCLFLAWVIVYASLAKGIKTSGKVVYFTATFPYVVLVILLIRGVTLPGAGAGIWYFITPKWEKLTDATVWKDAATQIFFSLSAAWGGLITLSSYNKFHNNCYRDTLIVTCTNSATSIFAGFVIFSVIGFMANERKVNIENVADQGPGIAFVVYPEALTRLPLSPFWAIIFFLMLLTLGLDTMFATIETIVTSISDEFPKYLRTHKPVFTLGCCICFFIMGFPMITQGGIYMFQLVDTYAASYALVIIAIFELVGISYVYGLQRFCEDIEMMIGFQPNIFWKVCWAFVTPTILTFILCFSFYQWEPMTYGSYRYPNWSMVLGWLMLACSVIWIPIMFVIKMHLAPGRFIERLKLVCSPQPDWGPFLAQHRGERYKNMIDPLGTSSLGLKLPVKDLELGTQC
UniProt P48067, whole entry: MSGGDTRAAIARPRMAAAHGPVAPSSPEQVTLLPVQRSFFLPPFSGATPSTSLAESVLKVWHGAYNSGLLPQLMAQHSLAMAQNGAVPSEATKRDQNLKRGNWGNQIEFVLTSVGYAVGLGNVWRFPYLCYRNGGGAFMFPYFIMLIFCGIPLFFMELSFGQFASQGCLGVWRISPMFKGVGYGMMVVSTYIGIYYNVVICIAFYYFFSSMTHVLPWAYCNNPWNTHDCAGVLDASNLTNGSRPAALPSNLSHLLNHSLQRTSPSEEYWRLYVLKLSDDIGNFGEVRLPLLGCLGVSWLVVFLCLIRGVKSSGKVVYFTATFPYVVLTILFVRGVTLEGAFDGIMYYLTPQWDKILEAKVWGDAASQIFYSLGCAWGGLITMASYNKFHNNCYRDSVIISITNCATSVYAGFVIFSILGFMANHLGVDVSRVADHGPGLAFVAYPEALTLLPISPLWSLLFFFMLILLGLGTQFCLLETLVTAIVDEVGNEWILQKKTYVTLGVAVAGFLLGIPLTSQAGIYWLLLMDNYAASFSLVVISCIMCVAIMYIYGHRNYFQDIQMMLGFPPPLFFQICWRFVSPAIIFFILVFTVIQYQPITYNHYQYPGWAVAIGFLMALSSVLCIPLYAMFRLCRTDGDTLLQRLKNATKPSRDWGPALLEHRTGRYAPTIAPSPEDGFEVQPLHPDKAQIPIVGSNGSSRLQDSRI

Substance: 4-Chloro-N-((1-(4- (propylsulfonyl)piperazin- 1-yl)cyclohexyl)methyl) benzamide Hydrochloride
- pIC50 [1]: < 4.12
- pIC50 [2]: 6.76
